# Apparent affinities of Ab-95 variants for a coronavirus HR2 peptide

Reference: Engelhart et al. 2022, doi:10.1038/s41597-022-01779-4. File: FLAb, binding data.

The target is the same throughout: PDVDLGDISGINAS, from the HR2 region of SARS-CoV-2 spike.

Each scFv is VH, a (GGGGS)3 linker, VL, as in the parent Ab-95, and differs from it in the CDRs of the light chain only.
VH: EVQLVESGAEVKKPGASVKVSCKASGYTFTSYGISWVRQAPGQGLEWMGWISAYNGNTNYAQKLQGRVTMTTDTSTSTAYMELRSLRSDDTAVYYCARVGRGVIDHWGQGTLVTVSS
VL: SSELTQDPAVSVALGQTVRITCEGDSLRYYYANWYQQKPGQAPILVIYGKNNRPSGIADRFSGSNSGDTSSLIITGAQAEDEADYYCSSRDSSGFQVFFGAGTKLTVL

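Phage display of a naive human antibody library on the peptide gave the parent. In library AAYL52, one, two or three CDR residues were substituted; doubles and triples were drawn at random. In AlphaSeq, yeast of one mating type display the scFv and yeast of the other type display the target. Mating (16 h, 30 °C) was followed by selection of diploids and sequencing of their barcodes. Each replicate has its own calibration line, from reference interactions of the BCL2 family. There are three technical replicates.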

Changes read parent residue, position, new residue, counted from the first residue of the VL shown. Scale: log10 of Kd in nM, estimated from mating counts; low values are strong binders. A mean of the replicates is given; it leaves out those without a signal. Where no diploid with the target was found in that replicate, the entry reads "ND": below detection, most likely a poor binder, though not proof of it. Order: sorted from the lowest average up, undetected variants last.

| log10 Kd (nM) by replicate | log10 Kd (nM), mean | changes |
|---|---|---|
| 1.32 1.23 1.07 | 1.20 | Y30R K50G F95S |
| 1.88 1.61 1.81 | 1.76 | E23I Y30R S93R |
| 1.91 2.40 1.51 | 1.94 | E23G D25G A32M |
| 2.10 2.56 1.73 | 2.13 | A32G R90P |
| 2.92 2.55 2.21 | 2.56 | R28C Y31W S89A |
| 2.95 2.57 2.25 | 2.59 | E23K S26N R28A |
| 3.02 2.53 2.33 | 2.63 | Y31Q N52P P54G |
| 2.57 3.28 2.18 | 2.68 | Y31R S92F |
| 2.85 2.37 2.92 | 2.72 | Y30S D91R F95N |
| 2.89 2.99 2.78 | 2.88 | D91W S92P |
| 3.13 2.54 3.21 | 2.96 | K50A R90Y F98A |
| ND 2.99 ND | 2.99 | Y30D A32W G94Q |
| 2.78 3.62 2.77 | 3.06 | D91E Q96K F98T |
| ND ND 3.06 | 3.06 | G49K P54L R90I |
| 3.21 ND ND | 3.21 | Y29W R53V S88Q |
| 4.64 3.65 2.38 | 3.56 | L27D Y29R N52C |
| 3.20 4.04 3.48 | 3.57 | R28T Y30W Q96F |
| 4.23 2.98 ND | 3.61 | R28S G49N S93T |
| 3.72 3.98 3.18 | 3.63 | E23N S26L A32D |
| 3.07 4.27 ND | 3.67 | A32P N52D S92G |
| 3.71 ND ND | 3.71 | Y30M A32T N33Y |
| 3.31 4.08 3.86 | 3.75 | Y31T N51A S88Y |
| 3.78 ND ND | 3.78 | R90D Q96I F98H |
| 3.46 ND 4.33 | 3.90 | D25G Y29W R53C |
| ND 3.96 ND | 3.96 | G49K N51R D91W |
| 3.98 ND ND | 3.98 | N52R S92T F98I |
| 4.02 ND ND | 4.02 | R28M A32M V97E |
| 4.21 4.37 ND | 4.29 | G24H S88W F95V |
| 3.91 4.75 ND | 4.33 | N33M N52H F95C |
| ND ND ND | ND | Y29H S89A G94A |
| ND ND ND | ND | E23N S89V G94V |
| ND ND ND | ND | R28M N33I K50W |
| ND ND ND | ND | E23Q G49H G94N |
| ND ND ND | ND | R53L S88T G94L |
| ND ND ND | ND | E23N A32W G49W |
| ND ND ND | ND | G24F N33R N52D |

Picked from the list: the 5 lowest averages where every replicate gave a value.

| changes | log10 Kd (nM) by replicate | log10 Kd (nM), mean |
|---|---|---|
| Y30R K50G F95S | 1.32 1.23 1.07 | 1.20 |
| E23I Y30R S93R | 1.88 1.61 1.81 | 1.76 |
| E23G D25G A32M | 1.91 2.40 1.51 | 1.94 |
| A32G R90P | 2.10 2.56 1.73 | 2.13 |
| R28C Y31W S89A | 2.92 2.55 2.21 | 2.56 |

Parent in this assay: reference entry 2.31, copy in this library 2.25. Nonspecific signal, from three strains lacking the peptide, appeared in 28% of pairings of library AAYL52, centred on 3.91 (5% of these signals below 2.90); values are not corrected for it.